Entries after “also recorded” stand apart in the source; their conditions may differ.

This is an account of results in article PMC8863796, “Combination of antiviral drugs inhibits SARS-CoV-2 polymerase and exonuclease and demonstrates COVID-19 therapeutic potential in viral cell culture” (Communications Biology, 2022).

In experiment [1] the target is T1, SARS-CoV-2 exonuclease complex (nsp14/nsp10) (Severe acute respiratory syndrome coronavirus 2, UniProt P0DTD1). In kind it is biochemical.
The target in experiment [2] is T1, SARS-CoV-2 exonuclease complex (nsp14/nsp10). Further details: method as in earlier work. Particulars: previously demonstrated; cited from earlier work.

As to `COC(=O)N[C@H](C(=O)N1CCC[C@H]1c1nc(-c2ccc(-c3ccc(-c4c[nH]c([C@@H]5CCCN5C(=O)[C@@H](NC(=O)OC)C(C)C)n4)cc3)cc2)c[nH]1)C(C)C` [Daclatasvir], in experiment [1], the “inhibition of SARS-CoV-2 exonuclease activity” value is “exhibits inhibition of exonuclease activity, but at higher concentrations than either Pibrentasvir or Ombitasvir; also recorded: exonuclease activity was reduced”. Besides, the “inhibition of SARS-CoV-2 exonuclease” value in experiment [2] is “can inhibit the SARS-CoV-2 exonuclease”.
